This experiment deals with P450RAI-1 (Homo sapiens, UniProt O43174). The experiment is described as follows: P450RAI-1 cell-based inhibitor assay (intact HeLa). The conditions noted are these: read-out: P450RAI INHIBITION DATA INTACT HELA IC50; P450RAI-1 stably transfected HeLa cells, [3H]-RA, 3 hours at 37° C.; inhibition of all-trans-RA metabolism by 50 percent.

Protein sequences, listed by entry. Tags and fused reporters are not part of them.
UniProt O43174, whole entry: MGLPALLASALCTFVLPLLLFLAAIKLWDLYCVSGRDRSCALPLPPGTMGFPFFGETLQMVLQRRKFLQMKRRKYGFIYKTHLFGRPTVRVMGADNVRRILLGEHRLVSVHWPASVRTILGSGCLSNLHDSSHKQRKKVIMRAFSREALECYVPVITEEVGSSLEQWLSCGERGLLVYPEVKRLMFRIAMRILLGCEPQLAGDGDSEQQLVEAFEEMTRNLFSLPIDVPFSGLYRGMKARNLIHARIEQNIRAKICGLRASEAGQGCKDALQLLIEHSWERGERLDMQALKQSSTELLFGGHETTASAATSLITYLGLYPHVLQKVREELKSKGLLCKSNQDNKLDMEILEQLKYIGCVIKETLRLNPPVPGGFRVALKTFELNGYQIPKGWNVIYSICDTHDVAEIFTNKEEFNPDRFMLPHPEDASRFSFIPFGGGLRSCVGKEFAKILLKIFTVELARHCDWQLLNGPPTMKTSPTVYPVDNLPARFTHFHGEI

pIC50: −log10 of the molar value.

On to `COc1c(C(C)(C)C)cc(C#Cc2ccc(C(=O)O)cc2)cc1C(C)(C)C`, for which the pIC50 was 5.82.

With `CC1(C)CCC(=O)c2ccc(C#Cc3ccc(C(=O)O)cc3)cc21`, the pIC50 is 5.92.

Source of the values: US6855512B2, “Methods for identifying inhibitors of cytochrome P450RAI” (Allergan, Inc., priority 2000, dated 2005).
